{
  "source": "paper PMC4904354",
  "about": "(Journal of Cerebral Blood Flow & Metabolism, 2015)",
  "tested_on": "N-methyl-D-aspartate receptor",
  "assay_type": "in vivo, human",
  "details": "for percentage change in mean Ki of [^11C]GMOM after S-ketamine: outlier excluded, 2T3k_VB model",
  "key": {"[1]": {"details": "linear mixed effects model analysis, significant but small"}},
  "note": "Like-named read-outs stand apart in the source and are kept apart here.",
  "data": [
    {"compound": "CN[C@]1(c2ccccc2Cl)CCCCC1=O", "note": "[S-ketamine, reference compound]", "values": [
      {"measurement": "increase of Ki of [^11C]GMOM after S-ketamine in one subject (outlier)", "setting": "all ROI, single outlier subject", "value": "> 75", "unit": "%"},
      {"measurement": "percentage change in mean Ki of [^11C]GMOM after S-ketamine", "setting": "hippocampus", "value": "−70 ± 12", "unit": "%"},
      {"measurement": "increase in K1 of [^11C]GMOM after the challenge", "setting": "[1]", "value": 7, "unit": "%"},
      {"measurement": "increase in VND of [^11C]GMOM after the challenge", "setting": "[1]", "value": 10, "unit": "%"},
      {"measurement": "change in Ki of [^11C]GMOM after S-ketamine challenge at the whole brain level", "setting": "linear mixed effects model, p < 0.0001", "value": "significant decrease"},
      {"measurement": "percentage change in mean Ki of [^11C]GMOM after S-ketamine", "setting": "thalamus", "value": "−79 ± 24", "unit": "%"},
      {"measurement": "percentage change in mean Ki of [^11C]GMOM after S-ketamine", "setting": "total brain gray matter", "value": "−66 ± 23", "unit": "%"}
    ]}
  ]
}
